Data on one compound can be found in BindingDB's records for patent US10941160 (Celgene Quanticel Research, 2021).

The term IC50 denotes the concentration needed to halve the response being measured.

For the assay, the target named is Bromodomain-containing protein 4 (Homo sapiens, UniProt O60885). Nature of the assay: In Vitro Enzyme Inhibition Assay. How it is done:
His-tagged BRD4 was cloned, expressed and purified to homogeneity. BRD4 binding and inhibition was assessed by monitoring the interaction of biotinylated H4-tetraacetyl peptide (AnaSpec, H4K5/8/12/16(Ac), biotin-labeled) with the target using the AlphaScreen technology ([…]). […] After 20 min incubation at room temp, Alpha streptavidin donor beads and Nickel Chelate acceptor beads were added to a final concentration of 5 μg/mL.

In turn, `CCCCc1cnc(NS(O)(O)CC)nc1-c1ccc(=O)n(C)c1` [US10941160, Example 358] yielded an IC50 of less than 500 nM.
